Experimental findings from patent publication US11773071B2, “Benzothiazepine compounds and their use as bile acid modulators” (Albireo AB, priority 2019, dated 2023) are described below.

Chains of the proteins cited; added tags and fusions are not shown.
UniProt Q14973, whole entry: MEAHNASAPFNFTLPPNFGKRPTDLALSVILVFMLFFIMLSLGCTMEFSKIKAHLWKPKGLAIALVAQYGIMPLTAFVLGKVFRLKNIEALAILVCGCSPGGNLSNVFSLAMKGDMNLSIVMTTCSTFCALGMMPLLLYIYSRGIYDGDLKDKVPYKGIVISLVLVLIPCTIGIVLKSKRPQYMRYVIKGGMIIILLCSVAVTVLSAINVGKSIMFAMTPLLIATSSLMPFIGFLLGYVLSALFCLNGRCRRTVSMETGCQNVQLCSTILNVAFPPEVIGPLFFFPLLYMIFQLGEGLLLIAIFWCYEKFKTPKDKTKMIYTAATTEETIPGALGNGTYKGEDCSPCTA
UniProt Q12908, whole entry: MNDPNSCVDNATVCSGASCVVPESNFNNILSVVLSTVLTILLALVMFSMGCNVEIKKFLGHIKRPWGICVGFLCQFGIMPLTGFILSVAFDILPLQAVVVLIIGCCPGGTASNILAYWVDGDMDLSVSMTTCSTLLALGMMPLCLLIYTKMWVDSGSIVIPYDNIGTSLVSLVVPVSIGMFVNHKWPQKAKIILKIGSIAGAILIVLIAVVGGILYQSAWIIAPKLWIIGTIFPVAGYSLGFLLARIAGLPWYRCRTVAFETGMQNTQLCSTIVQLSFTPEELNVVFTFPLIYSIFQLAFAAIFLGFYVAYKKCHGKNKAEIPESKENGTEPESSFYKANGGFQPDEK

Each structure is given as a SMILES string.

One assay addresses Human LBAT (Homo sapiens, UniProt Q14973). Put plainly: LBAT (h/m) assay, human LBAT-overexpressing cells, 3H-taurocholic acid uptake. The note with it: read-out: hLBAT IC50, 0.3 μM 3H-taurocholic acid and 7.5 μM cold taurocholic acid, 20 minutes.
The next assay has as its target Human IBAT (Homo sapiens, UniProt Q12908). Put plainly: IBAT (h/m) assay, human IBAT-overexpressing cells, 3H-taurocholic acid uptake. The note with it: read-out: hIBAT IC50, 0.25 μM 3H-taurocholic acid and 5 μM cold taurocholic acid, 20 minutes.

With `CCCCC1(CC)CN(c2ccc(F)cc2)c2cc(SC)c(OCCC(=O)O)cc2S(=O)(=O)C1` (single isomer, unassigned) [38, enantiomer 1], the results for the IC50 at Human LBAT and on Human IBAT were 289 nM and 24 nM, respectively.

`CCCCC1(CC)CN(c2ccc(F)cc2)c2cc(SC)c(OCCC(=O)O)cc2S(=O)(=O)C1` (single isomer, unassigned) [38, enantiomer 2]: the results for the IC50 at Human LBAT and on Human IBAT were 439 nM and 0.8 nM, respectively.
